Here are results for four compounds from ChEMBL document CHEMBL1133341, “ORL1 receptor ligands: structure-activity relationships of 8-cycloalkyl-1-phenyl-1,3,8-triaza-spiro[4.5]decan-4-ones” (Bioorg Med Chem Lett, 2000).

One test addresses Nociceptin receptor (Rattus norvegicus, UniProt P35370). As to the kind of experiment: Inhibition against binding of radioligand [leucyl-3H]-OFQ to membrane of human embryonic kidney 293 cells overexpressing rat Opioid receptor like 1. The following applies: hek293.
Test [1] addresses Delta-type opioid receptor (Rattus norvegicus, UniProt P33533). As to the kind of experiment: Inhibition against binding of radioligand [Ile5,6-3H]-deltorphin to membrane from baby hamster kidney cells infected with forest virus encoding the cDNAs for rat Opioid receptor delta 1.
The target in test [2] is Kappa-type opioid receptor (Rattus norvegicus, UniProt P34975). As to the kind of experiment: Inhibition against binding of radioligand [N-allyl-2-3-3H]-naloxone to membrane of baby hamster kidney cells infected with forest virus encoding the cDNAs for rat Opioid receptor kappa 1.
The next test addresses Mu-type opioid receptor (Rattus norvegicus, UniProt P33535). Description: Inhibition against binding of radioligand [N-allyl-2-3-3H]-naloxone to membrane of baby hamster kidney cells infected with forest virus encoding the cDNAs for rat Opioid receptor mu 1.

Molecules are shown by their SMILES. pKi: −log10 of the molar value. Some results are limits rather than exact numbers.

The pKi is the negative decadic logarithm of the Ki, by convention in mol/L. Read a low pKi as a large Ki. At Nociceptin receptor, `C[C@H]1CC[C@H](N2CCC3(CC2)C(=O)NCN3c2ccccc2)CC1` had a pKi of 7.39.

On to `C[C@H]1CC[C@@H](N2CCC3(CC2)C(=O)NCN3c2ccccc2)CC1`, for which the pKi in test [1] was < 5.70; in test [2], 7.24; at Nociceptin receptor, 8.15; on Mu-type opioid receptor, 7.19.

For `O=C1NCN(c2ccccc2)C12CCN(C1CCCCC1)CC2`, the pKi in test [2] is 7.00; at Nociceptin receptor, 7.60; at Mu-type opioid receptor it was 6.80.

`O=C1NCN(c2ccccc2)C12CCN(C1CCCCCC1)CC2`: the pKi was < 5.70 in test [1], 7.92 in test [2], 8.33 at Nociceptin receptor and 7.29 on Mu-type opioid receptor.
